The values below are quoted from earlier work in article PMC5517007.

Chains of the proteins cited; added tags and fusions are not shown. Residues count along the entry.
UniProt P43628, 22-245: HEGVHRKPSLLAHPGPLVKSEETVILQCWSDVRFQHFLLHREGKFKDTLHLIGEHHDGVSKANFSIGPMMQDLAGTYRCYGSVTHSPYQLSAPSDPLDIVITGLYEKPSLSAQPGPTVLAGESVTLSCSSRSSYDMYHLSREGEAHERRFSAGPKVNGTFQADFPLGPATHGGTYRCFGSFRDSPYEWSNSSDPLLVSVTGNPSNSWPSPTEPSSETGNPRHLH
UniProt P43626, 22-245: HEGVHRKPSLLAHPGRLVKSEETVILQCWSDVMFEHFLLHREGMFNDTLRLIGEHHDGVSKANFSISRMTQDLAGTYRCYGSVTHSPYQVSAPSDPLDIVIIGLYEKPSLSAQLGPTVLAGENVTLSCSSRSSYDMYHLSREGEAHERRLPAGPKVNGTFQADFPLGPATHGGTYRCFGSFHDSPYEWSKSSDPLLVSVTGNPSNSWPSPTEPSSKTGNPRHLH

The term Kd denotes the concentration at which binding is half-saturated.

Series [1] has as its target KIR2DL3 (Homo sapiens) (UniProt P43628). The series is described as follows: SPR. On the technique in general: Surface plasmon resonance follows binding to a sensor surface in real time, without labels.
Series [2] deals with KIR2DL1 (Homo sapiens) (UniProt P43626). In words: SPR.

With lirilumab, the Kd was 0.025 nM in series [1] and 0.43 nM in series [2].
